These results are taken from patent publication US20080199424A1 (published 2008).

Test [1] has as its target MART-1 peptide on HLA-A*02:01 (human). The test is described as follows: lower end of the range; equilibrium tetramer binding on Jurkat cells stably transfected with M1 alpha and beta, tetramer 0.1-25 nM, Scatchard plot, KD=1/slope (tetramer avidity); full-length, on cells.
Test [2] shares this target. The test is described as follows: upper end of the range; equilibrium tetramer binding on Jurkat cells stably transfected with M1 alpha and beta, tetramer 0.1-25 nM, Scatchard plot, KD=1/slope (tetramer avidity); full-length, on cells.

Where only a bound is given, the exact number is not on record here.

B1: M1 TCR (TCR, V domains shown)
Valpha: QKEVEQDPGPLSVPEGAIVSLNCTYSNSAFQYFMWYRQYSRKGPELLMYTYSSGNKEDGRFTAQVDKSSKYISLFIRDSQPSDSATYLCAMSETGGFKTIFGAGTRLFVKA
Vbeta: EAQVTQNPRYLITVTGKKLTVTCSQNMNHEYMSWYRQDPGLGLRQIYYSMNVEVTDKGDVPEGYKVSRKEKRNFPLILESPSPNQTSLYFCASSLVGTAGSPLHFGNGTRLTVT
With B1, the values for the Kd in test [1] and in test [2] were not below 4 nM and not above 6 nM, respectively.
